# Test system: Bacillus cereus spores
# Type: cell-based
smiles,measurement,value
"CC(=O)O [glacial acetic acid, acetic acid]",DPA SERS signal,no DPA SERS signal was observed

# Source: patent publication US7713914B2 (priority 2005, dated 2010)
